Test results as given in PMC8815882, “Screening the pandemic response box identified benzimidazole carbamates, Olorofim and ravuconazole as promising drug candidates for the treatment of eumycetoma” (PLoS Neglected Tropical Diseases, 2022).
Values joined by “and” are separate entries in the source; they are usually repeats but may differ in a detail not shown here. Equal entries are not always repeated. Where two headings read alike, the source gives them in different places.

Test system: M. mycetomatis genome strain MM55
Experiment: CLSI M38-A2 based in vitro susceptibility screening (XTT or resazurin), growth at fixed concentration
Type: cell-based, Madurella mycetomatis
Conditions: for activity at 25 µM / activity at 100 µM: Madurella mycetomatis
[1] = read-out: Percentage survival at 25um, 25 uM B
[2] = read-out: Percentage survival at 25um, 25 uM C
[3] = read-out: Percentage survival at 25um, 25 uM mean
[4] = read-out: Percentage survival at 25um, 25 um A
[5] = read-out: Percentage survival at 100um, 100 uM mean

SMILES	Percentage survival at 100um, 100 uM A	activity at 25 µM [1] [%]	activity at 25 µM [2] [%]	activity at 25 µM [3] [%]	activity at 25 µM [4] [%]	activity at 100 µM (read-out: Percentage survival at 100um, 100 uM A) [%]	activity at 100 µM [5] [%]	activity at 100 µM (read-out: Percentage survival at 100um, 100 uM A (first replicate column)) [%]	activity at 100 µM (read-out: Percentage survival at 100um, 100 uM A (second replicate column)) [%]	activity at 100 µM (read-out: Percentage survival at 100um, 100 uM A (third replicate column)) [%]
CN(C)CCCOc1ccc(-c2ccc3ncc4c(c3c2)n(C2CCOCC2)c(=O)n4C)cn1 [MMV1580483]	82.101% and 79.4709%	97.1	112	101	93.2	86.6	82.7			
CCC[C@@H]1C[C@@H](C(=O)N[C@@H]([C@H]2O[C@H](SC)[C@H](O)[C@@H](O)[C@H]2O)[C@H](C)Cl)N(C)C1 [MMV000051]		142	112	113	85.4		85.7	84.7	81.2	91.2
